Measurements reported in publication PMC7575681 (EJNMMI Research, 2020).

Details: room temperature

## ^18F-deoxy-thiamine
0 h after synthesis
  RCP: 97.68%
2 h after synthesis
  RCP: 96.89%
4 h after synthesis
  RCP: 96.11%
6 h after synthesis
  RCP: > 95% and 95.03%
8 h after synthesis
  RCP: 94.01%
10 h after synthesis
  RCP: > 93% and 93.38%

Values joined by “and” are separate entries in the source; they are usually repeats but may differ in a detail not shown here. Equal values may be shown once. Read-outs that look alike come from different tables or passages of the source.
